The target of the experiment is human Factor XIa (Homo sapiens (Human), UniProt P03951). Nature of the experiment: Factor XIa Assay (fluorogenic substrate GPR-AFC). It is filed as biochemical. To be noted: read-out: FXIa IC50. As for the experimental part: The effectiveness of a compound of the present invention as an inhibitor of Coagulation Factor XIa can be determined using a relevant purified serine protease, and an appropriate synthetic substrate. The rate of hydrolysis of the chromogenic or fluorogenic substrate by the relevant serine protease was measured both in the absence and presence of compounds of the present invention. Assays were conducted at room temperature or at 37° C. […] A decrease in the rate of fluorescence change in the presence of inhibitor is indicative of enzyme inhibition. Such methods are known to one skilled in the art. The results of this assay are expressed as the half-maximal inhibitory concentrations (IC50), or the inhibitory constant, Ki.
Compounds were pre-incubated for 30 minutes at 25° C. with human (0.04 nM) Factor XIa in 50 mM HEPES buffer with 150 mM sodium chloride, 5 mM calcium chloride, 0.1% PEG 8000, pH 7.4. […] The % inhibition for each data point was calculated from the data and analyzed using the log (inhibitor) vs. response four parameters equation to determine the half-maximal inhibitory concentrations (IC50). The IC50 were converted to equilibrium inhibitory constants (Ki) using the Cheng-Prusoff equation.

Sequences of proteins named here, by UniProt entry; tags and fusion partners are left off. Residues count along the entry.
UniProt P03951, 19-387 partner limits assumed: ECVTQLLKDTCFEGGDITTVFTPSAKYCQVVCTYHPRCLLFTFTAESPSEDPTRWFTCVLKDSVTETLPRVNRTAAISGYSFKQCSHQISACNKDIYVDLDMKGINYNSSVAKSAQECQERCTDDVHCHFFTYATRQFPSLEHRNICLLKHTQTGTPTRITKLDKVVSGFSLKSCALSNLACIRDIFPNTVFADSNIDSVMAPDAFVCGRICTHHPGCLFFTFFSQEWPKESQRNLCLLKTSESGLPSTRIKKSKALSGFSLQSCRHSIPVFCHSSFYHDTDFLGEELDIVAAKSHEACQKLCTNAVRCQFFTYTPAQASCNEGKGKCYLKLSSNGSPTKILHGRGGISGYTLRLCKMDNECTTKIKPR
UniProt P03951, 388-625 limits assumed: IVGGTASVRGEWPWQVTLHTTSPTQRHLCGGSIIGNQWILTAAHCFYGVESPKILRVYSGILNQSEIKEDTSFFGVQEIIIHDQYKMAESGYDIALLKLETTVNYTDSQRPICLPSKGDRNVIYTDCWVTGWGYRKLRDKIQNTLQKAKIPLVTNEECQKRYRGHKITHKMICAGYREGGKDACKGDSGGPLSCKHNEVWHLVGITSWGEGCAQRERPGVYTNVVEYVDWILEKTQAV

Turning to “6-(3-Chloro-6-(difluoromethyl)-2-fluorophenyl)-N (1-(1-(5-fluoro-4-methyl-6-((1R,5S)-2-oxo-3-azabicyclo[3.1.0]hexan-3-yl)pyridin-3-yl)ethyl)-1H-pyrazol-4-yl)pyrazine-2-carboxamide [Example 44]”, the IC50 – broadly, the concentration at which inhibition is half-maximal – came out at 1120 nM.
